## Cyclic peptide permeability, from CycPeptMPDB

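The data file gives no further conditions (lipid, pH, time, direction or concentration), and values from different papers need not be comparable. The list need not hold all peptides of the study. Entries at the database's floor value (log10 P of -10) are not listed.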

PAMPA measures passive passage through an artificial lipid membrane. Permeability is in 10^-6 cm/s, converted from the database's log10 values; higher is more permeable.

CCCC[C@@H]1NC(=O)[C@@H](CC(C)C)NC(=O)CN(CC2CCOCC2)C(=O)[C@H](Cc2ccccc2)NC(=O)CN(Cc2ccc3c(c2)OCO3)C(=O)[C@H]2CCCN2C1=O has PAMPA 8.7 × 10^-6 cm/s.
CCCC[C@@H]1NC(=O)[C@H](CC(C)C)N(C)C(=O)CN(CC2CCOCC2)C(=O)[C@H](C)NC(=O)CN(CCCOC(C)C)C(=O)[C@@H]2CCCN2C1=O has PAMPA 0.25 × 10^-6 cm/s.
CCCC[C@@H]1NC(=O)[C@H](CC(C)C)NC(=O)CN(CC2CCOCC2)C(=O)[C@H](Cc2ccccc2)NC(=O)CN(Cc2ccc3c(c2)OCO3)C(=O)[C@@H]2CCCN2C1=O has PAMPA 4.6 × 10^-6 cm/s.
CCCCCN1CC(=O)N(C)[C@H](CC(C)C)C(=O)N[C@@H](CCCC)C(=O)N2CCC[C@H]2C(=O)N(CC)CC(=O)N[C@@H](Cc2ccccc2)C1=O has PAMPA 14 × 10^-6 cm/s.
CCCC[C@@H]1NC(=O)[C@H](CC(C)C)N(C)C(=O)CN(CC2CCOCC2)C(=O)[C@H](Cc2ccccc2)NC(=O)CN(Cc2ccc3c(c2)OCO3)C(=O)[C@@H]2CCCN2C1=O has PAMPA 9.3 × 10^-6 cm/s.
CCCC[C@@H]1NC(=O)[C@H](CC(C)C)N(C)C(=O)CN(CC2CCCCC2)C(=O)[C@@H](Cc2ccccc2)NC(=O)CN(CC)C(=O)[C@@H]2CCCN2C1=O has PAMPA 7.9 × 10^-6 cm/s.
CCCC[C@@H]1NC(=O)[C@@H](CC(C)C)N(C)C(=O)CN(CC2CCCCC2)C(=O)[C@@H](Cc2ccccc2)NC(=O)CN(Cc2ccc3c(c2)OCO3)C(=O)[C@H]2CCCN2C1=O has PAMPA 0.13 × 10^-6 cm/s.
CCCCCN1CC(=O)N(C)[C@@H](CC(C)C)C(=O)N[C@@H](CCCC)C(=O)N2CCC[C@@H]2C(=O)N(CC)CC(=O)N[C@H](Cc2ccccc2)C1=O has PAMPA 4.6 × 10^-6 cm/s.
CCCC[C@@H]1NC(=O)[C@H](CC(C)C)N(C)C(=O)CN(CC2CCCCC2)C(=O)[C@H](C)NC(=O)CN(CC)C(=O)[C@@H]2CCCN2C1=O has PAMPA 7.1 × 10^-6 cm/s.
CCCC[C@@H]1NC(=O)[C@H](CC(C)C)N(C)C(=O)CN(CC2CCCCC2)C(=O)[C@H](Cc2ccccc2)NC(=O)CN(CCCOC(C)C)C(=O)[C@H]2CCCN2C1=O has PAMPA 0.78 × 10^-6 cm/s.
CCCCCN1CC(=O)N(C)[C@H](CC(C)C)C(=O)N[C@@H](CCCC)C(=O)N2CCC[C@H]2C(=O)N(Cc2ccc3c(c2)OCO3)CC(=O)N[C@@H](Cc2ccccc2)C1=O has PAMPA 1.5 × 10^-6 cm/s.
CCCC[C@@H]1NC(=O)[C@H](CC(C)C)N(C)C(=O)CN(CC2CCOCC2)C(=O)[C@@H](Cc2ccccc2)NC(=O)CN(CC)C(=O)[C@@H]2CCCN2C1=O has PAMPA 0.19 × 10^-6 cm/s.
CCCCCN1CC(=O)N(C)[C@@H](CC(C)C)C(=O)N[C@@H](CCCC)C(=O)N2CCC[C@H]2C(=O)N(CC)CC(=O)N[C@@H](C)C1=O has PAMPA 2.9 × 10^-6 cm/s.
CCCC[C@@H]1NC(=O)[C@@H](CC(C)C)NC(=O)CN(CC2CCOCC2)C(=O)[C@H](Cc2ccccc2)NC(=O)CN(Cc2ccc3c(c2)OCO3)C(=O)[C@@H]2CCCN2C1=O has PAMPA 7.1 × 10^-6 cm/s.
CCCC[C@@H]1NC(=O)[C@H](CC(C)C)NC(=O)CN(CC2CCCCC2)C(=O)[C@@H](Cc2ccccc2)NC(=O)CN(CCCOC(C)C)C(=O)[C@@H]2CCCN2C1=O has PAMPA 7.2 × 10^-6 cm/s.
CCCC[C@@H]1NC(=O)[C@@H](CC(C)C)NC(=O)CN(CC2CCCCC2)C(=O)[C@@H](C)NC(=O)CN(Cc2ccc3c(c2)OCO3)C(=O)[C@@H]2CCCN2C1=O has PAMPA 3.8 × 10^-6 cm/s.
CCCC[C@@H]1NC(=O)[C@@H](CC(C)C)N(C)C(=O)CN(CC2CCCCC2)C(=O)[C@@H](Cc2ccccc2)NC(=O)CN(CC)C(=O)[C@H]2CCCN2C1=O has PAMPA 8.3 × 10^-6 cm/s.

A selection of 2 entries from above:

{"smiles": "CCCC[C@@H]1NC(=O)[C@@H](CC(C)C)NC(=O)CN(CC2CCCCC2)C(=O)[C@@H](C)NC(=O)CN(Cc2ccc3c(c2)OCO3)C(=O)[C@@H]2CCCN2C1=O", "PAMPA (10^-6 cm/s)": "3.8"}
{"smiles": "CCCC[C@@H]1NC(=O)[C@H](CC(C)C)N(C)C(=O)CN(CC2CCCCC2)C(=O)[C@H](C)NC(=O)CN(CC)C(=O)[C@@H]2CCCN2C1=O", "PAMPA (10^-6 cm/s)": "7.1"}

Collected by the curators of CycPeptMPDB (Li et al. 2023) from Furukawa et al. 2016, doi:10.1021/acs.jmedchem.6b01246.